Source: US7226746B1, “Method for screening for anti-amyloidogenic properties and method for treatment of neurodegenerative disease” (The Regents of the University of California, priority 1998, dated 2007)
“Also recorded” adds a separate entry of the source.

Columns and labels:
[1] = molecular target: T1, NACP/α-synuclein (Homo sapiens, UniProt P37840); assay: His-tagged pull down in vitro binding assay; parameters: which encodes full length NACP/α-synuclein 140; 6xHis (cleaved yes); made in house; host or cells: E. coli; conditions: His-tagged β-synuclein 20 μM, 37° C., 8 hours, pH 6.9
Procedure: Samples containing 0–20 μM of NACP/α-synuclein are incubated at 37° C. for 8 hours in combination with or without His-tagged β-synuclein (20 μM) in a total volume of 20 μl at pH 6.9. At the completion of the first incubation period, Ni^2+ beads, equilibrated with buffer A (20 mM Tris-HCl, pH 8.5, 100 mM KCl, 2 mM imidazole, 10 mM 2-mercaptoethanol and 10% glycerol), are added to the samples and left to sit for one hour at 4° C. Following recovery of the beads by pulse centrifugation, the beads are washed three times with buffer A, once with buffer B (20 mM Tris-HCl, pH 8.5, 100 mM KCl, 20 mM imidazole, 10 mM 2-mercaptoethanol and 10% glycerol), and once again with buffer A. The beads are then boiled in SDS sample buffer, and subjected to 15% SDS-PAGE. NACP/α-synuclein is then visualized by the immunoblotting analysis described below.
NACP/α-synuclein-specific polyclonal antibody (anti-NACP101–124) is raised against the synthetic peptide ‘[…]’ (SEQ ID NO: 9) which is derived from residues 101–124 of NACP/α-synuclein. Immunoblotting analysis is performed as described above, the method of which is well known to those in the art. […]
The interaction of NACP/α-synuclein with β-synuclein was assessed using a His-tagged pull down assay. […]

[2] = molecular target: T1, NACP/α-synuclein; assay: Co-incubation with NACP/α-synuclein at pH 6.9, 65° C.; aggregation assessed by immunoblotting; type: biochemical; parameters: which encodes full length NACP/α-synuclein 140; 6xHis (cleaved yes); made in house; host or cells: E. coli
Procedure: NACP/α-synuclein-specific polyclonal antibody (anti-NACP101–124) is raised against the synthetic peptide ‘[…]’ (SEQ ID NO: 9) which is derived from residues 101–124 of NACP/α-synuclein. Immunoblotting analysis is performed as described above, the method of which is well known to those in the art. Briefly, each sample is resolved by SDS-PAGE (15%) and blotted onto nitrocellulose membrane (Schleicher & Schuell, Keene, N.H.) using a standard transfer apparatus. The membrane is then blocked with TBS containing 3% BSA, followed by an incubation with anti-NACP101–124 (1:1000) in TBS containing 1% BSA. […]
The results from the His-tagged analysis led to the hypothesis that β-synuclein may modulate the aggregation of NACP/α-synuclein in vitro. […] The effect of β-synuclein on the aggregation of NACP/α-synuclein was assessed by immunoblotting analysis using anti-NAC101–124.
According to the time-course results, NACP/α-synuclein was gradually aggregated. The 18 kD monomer bands were decreased while the soluble aggregates that represent oligomers in the separating gel and the insoluble aggregates detected in the stacking gel were increased.
The dose-dependancy of β-synuclein in the inhibition of aggregation of NACP/α-synuclein was determined using proteins preparations at 20 hours incubation. […] The quantification of ratio of the aggregates versus the monomer was performed. […]

binding of NACP/α-synuclein to His-tagged β-synuclein (pull down on Ni2+ beads) [1]: detected as a 18 kD monomer band
Substance: β-synuclein: human recombinant NACP/α-synuclein-related protein with a partially incomplete NAC domain; non-amyloidogenic
effect on aggregation of NACP/α-synuclein, time course, equimolar co-incubation ([2]; 20 μM NACP/α-synuclein plus 20 μM added protein): inhibited the aggregation of NACP/α-synuclein
dose-dependency of inhibition of aggregation of NACP/α-synuclein (ratio of aggregates versus monomer) ([2]; 20 hours incubation, varied ratio to NACP/α-synuclein, n=3): significantly inhibited the aggregation; also recorded: dose-dependant inhibition
